# Values of other authors as cited in publication PMC7198388, “Radiohybrid Ligands: A Novel Tracer Concept Exemplified by ^18F- or ^68Ga-Labeled rhPSMA Inhibitors” (Journal of Nuclear Medicine, 2020).
# System: LNCaP tumor-bearing male CB-17 SCID mice
# Settings: 1 h p.i., mean ± SD, n = 4, cited from earlier work
structure (smiles),measurement,setting,value
O=C(O)CC[C@H](NC(=O)N[C@@H](CCCCNC(=O)[C@H](Cc1ccc2ccccc2c1)NC(=O)c1ccc(CNC(=O)[C@H](CCC(=O)O)NC(=O)[C@H](CCC(=O)O)NC(=O)c2ccc(F)nc2)cc1)C(=O)O)C(=O)O,"Biodistribution, Adrenals",,7.5 ± 3.4 %ID/g
same,"Biodistribution, Blood",,0.48 ± 0.29 %ID/g
same,"Biodistribution, Bone",,0.89 ± 0.67 %ID/g
same,"Biodistribution, Heart",,1.4 ± 0.5 %ID/g
same,"Biodistribution, Intestine",,1.1 ± 0.3 %ID/g
same,"Biodistribution, Kidneys",,123.3 ± 52.1 %ID/g
same,"Biodistribution, Liver",,1.2 ± 0.5 %ID/g
same,"Biodistribution, Lung",,1.8 ± 1.0 %ID/g
same,"Biodistribution, Muscle",,0.64 ± 0.41 %ID/g
same,"Biodistribution, Pancreas",,1.4 ± 0.7 %ID/g
same,"Biodistribution, Spleen",,16.68 ± 5.09 %ID/g
same,"Biodistribution, Stomach",,0.96 ± 0.86 %ID/g
same,"Biodistribution, Tumor",LNCaP tumor,7.4 ± 0.7 %ID/g
